Results as given in publication PMC5384220, “Highly selective inhibition of histone demethylases by de novo macrocyclic peptides” (Nature Communications, 2017).

Legend:
His-KDM4A1-359-Bio = molecular target: T1, His-KDM4A1-359-Bio (Homo sapiens, UniProt O75164); assay: Biolayer interferometry binding to KDM4A
T1 construct: KDM4A protein (residues 1-359) was cloned into the pNIC-Bio3 plasmid, which incorporates a C-terminal AviTag; made in house; host or cells: E. coli BL21(DE3)Rosetta co-transfected with pCDF-BirA
T1 sequence (O75164 1-359): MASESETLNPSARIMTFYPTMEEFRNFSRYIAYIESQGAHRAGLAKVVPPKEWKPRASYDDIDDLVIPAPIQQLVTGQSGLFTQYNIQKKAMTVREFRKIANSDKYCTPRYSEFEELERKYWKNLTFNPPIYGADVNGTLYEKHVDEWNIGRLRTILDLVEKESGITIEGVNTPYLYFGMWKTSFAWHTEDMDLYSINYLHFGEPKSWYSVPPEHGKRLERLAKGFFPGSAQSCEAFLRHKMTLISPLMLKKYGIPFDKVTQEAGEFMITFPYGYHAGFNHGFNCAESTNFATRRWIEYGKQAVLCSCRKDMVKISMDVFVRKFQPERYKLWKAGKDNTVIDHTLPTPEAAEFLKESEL

[1] = 10 µM, 37°C, intact peptide by LCMS
His-KDM4A1-359 = molecular target: T2, His-KDM4A1-359 (Homo sapiens, UniProt O75164); assay: Formaldehyde dehydrogenase coupled KDM assay (mode of inhibition); type: biochemical; conditions: FDH assay; 0.5 µM KDM4A; H3(1-15)K9me3 substrate; mixed-model fit
T2 construct: using 0.5 μM His-KDM4A1–359; made in house
T2 sequence (O75164 1-359): T1 sequence (O75164 1-359)

FLAG-KDM4A1-1,064 = molecular target: T3, FLAG-KDM4A1-1,064 (Homo sapiens, UniProt O75164); assay: CETSA, FLAG-KDM4A in U2OS cells; type: cell-based; conditions: read-out: ITDRF CETSA EC50, FLAG-KDM4A stabilization, 55 °C, 20 h dosing
T3 construct: expressed in transfected cells; host or cells: U2OS
T3 sequence (O75164 1-1064): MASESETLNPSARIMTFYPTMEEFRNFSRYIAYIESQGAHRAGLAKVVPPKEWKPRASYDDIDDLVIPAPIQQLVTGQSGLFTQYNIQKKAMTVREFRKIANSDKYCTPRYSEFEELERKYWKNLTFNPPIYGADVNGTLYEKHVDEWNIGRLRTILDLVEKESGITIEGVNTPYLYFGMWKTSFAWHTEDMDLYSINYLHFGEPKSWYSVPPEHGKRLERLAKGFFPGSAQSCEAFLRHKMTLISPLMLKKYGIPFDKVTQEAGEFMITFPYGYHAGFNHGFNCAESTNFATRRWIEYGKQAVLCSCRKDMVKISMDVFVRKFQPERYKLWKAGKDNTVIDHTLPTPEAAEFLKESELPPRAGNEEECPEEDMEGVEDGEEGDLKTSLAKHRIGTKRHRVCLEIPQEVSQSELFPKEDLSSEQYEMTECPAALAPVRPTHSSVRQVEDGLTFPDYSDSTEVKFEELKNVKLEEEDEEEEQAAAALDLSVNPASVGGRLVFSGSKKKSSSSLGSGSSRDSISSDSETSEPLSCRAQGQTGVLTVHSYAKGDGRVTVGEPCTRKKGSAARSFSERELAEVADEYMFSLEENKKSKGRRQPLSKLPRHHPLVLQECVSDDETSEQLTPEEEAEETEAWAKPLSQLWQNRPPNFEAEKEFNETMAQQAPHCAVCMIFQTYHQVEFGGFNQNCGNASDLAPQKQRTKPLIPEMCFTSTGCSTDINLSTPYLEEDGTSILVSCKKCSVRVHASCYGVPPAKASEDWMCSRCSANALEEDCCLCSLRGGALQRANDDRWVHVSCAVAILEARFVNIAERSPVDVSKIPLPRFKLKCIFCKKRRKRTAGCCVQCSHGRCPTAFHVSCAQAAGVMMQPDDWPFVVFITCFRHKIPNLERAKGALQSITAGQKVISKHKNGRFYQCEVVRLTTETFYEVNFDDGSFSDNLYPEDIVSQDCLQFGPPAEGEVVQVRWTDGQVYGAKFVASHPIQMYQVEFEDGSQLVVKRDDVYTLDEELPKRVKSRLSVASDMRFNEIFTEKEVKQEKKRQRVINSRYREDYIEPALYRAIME
Description: Control cells were dosed only with DMSO.

Substance | pKd (His-KDM4A1-359-Bio) | Half life (t1/2) in HeLa cell lysate [1] [h] | pKi (His-KDM4A1-359) | pEC50 (FLAG-KDM4A1-1,064)
LYSKYTQSGVRWVC [CP5] | 6.76 |  |  | 
LYLKSRRSGLTWIPC [CP4] | 7.44 |  |  | 
DYVYNTRSGWRWYTC [CP2] |  | ~1 | 6.74 | ~6.00
DY(meV)YNTRSDAWRW(4FF)P(meC) [CP2.3] |  | ~5 |  | > 7.00

pEC50, pKd, pKi: −log10 of the molar value.
